This assay has as its system EFM-192A cells. Put plainly: Mitotic index (phospho histone H3) after ABCC3 or control siRNA, EFM-192A. The assay is classed as cell-based, human. The procedure: High content screening assays were carried out on an Arrayscan VTI (Cellomics Inc, Pittsburgh, Pa.). Cells were transfected in 96 well format using siRNA “Smartpool” oligonucleotides purchased from Dharmacon Inc and Oligofectamine transfection reagents. To prioritize genes for functional studies, 2-sided Wilcoxon rank sum tests using the R programming language (http://www.r-project.org) were done to identify genes with a significant difference in gene expression in cell lines with more than 4 copies compared to those with less than 4 copies of the 17q21.3 amplicon. […] Cells were counterstained with Hoechst-33258 to allow identification of nuclei and the percentage of cells positive for nuclear pH3 immunofluorescence, also known as the Mitotic Index (30), was then quantitated for at least 1000 cells per well using Cellomics Target Activation software.
Phosphorylation at Ser10 of histone H3 is tightly correlated with chromosome condensation during M phase, and the percentage of cells that are positive for pH3 staining, or mitotic index, can be determined through an immunofluorescence assay.

Here are results for one substance from patent publication US11021711B2, “Genetic variations associated with drug resistance” (GENENTECH, Inc., priority 2008, dated 2021).

In the case of “trastuzamab-mc-vc-PAB-MMAF: trastuzamab (Herceptin) conjugated via maleimidocaproyl-valine-citrulline-PAB to MMAF”, the “sensitivity (mitotic response) of ABCC3 siRNA transfected cells vs control siRNA (NTC) transfected cells” value was “more sensitive”.
